Experiment: Nasal opioid solutions used as medicament in the device

Hydromorphine
effectiveness of nasal solution (solution of 50 μg per ml): effect

Dimorphine
effectiveness of nasal solution (30 mg per ml solutions): effective
